According to ChEMBL document CHEMBL4609986 (Bioorg Med Chem, 2020):
pKd: −log10 of the molar value.

Protein sequences, listed by entry. Tags and fused reporters are not part of them. Lines headed by an entry give the natural chain unless they say otherwise; changes in a name come on top.
UniProt Q14680: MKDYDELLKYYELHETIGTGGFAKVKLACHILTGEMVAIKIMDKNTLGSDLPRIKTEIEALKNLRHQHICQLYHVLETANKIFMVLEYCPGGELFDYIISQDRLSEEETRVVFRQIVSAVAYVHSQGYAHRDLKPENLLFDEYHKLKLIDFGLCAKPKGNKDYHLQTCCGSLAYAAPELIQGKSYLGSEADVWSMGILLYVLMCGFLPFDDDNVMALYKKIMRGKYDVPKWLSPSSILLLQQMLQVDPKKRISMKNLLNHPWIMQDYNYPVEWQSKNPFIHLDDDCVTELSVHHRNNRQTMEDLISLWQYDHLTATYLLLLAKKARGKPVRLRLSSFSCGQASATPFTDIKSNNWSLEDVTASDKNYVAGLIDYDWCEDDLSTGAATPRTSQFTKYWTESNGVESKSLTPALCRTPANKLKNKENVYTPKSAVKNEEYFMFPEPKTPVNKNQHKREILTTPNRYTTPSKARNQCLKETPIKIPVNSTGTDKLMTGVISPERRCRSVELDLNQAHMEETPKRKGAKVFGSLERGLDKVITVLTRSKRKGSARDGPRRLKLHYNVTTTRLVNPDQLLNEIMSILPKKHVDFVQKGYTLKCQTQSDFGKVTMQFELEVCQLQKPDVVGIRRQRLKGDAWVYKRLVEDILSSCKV

Biological target: Maternal embryonic leucine zipper kinase (Homo sapiens, UniProt Q14680)
Assay: Binding affinity to wild-type human full length MELK (M1 to V651 residues) expressed in bacterial expression system by Kinomescan method

## CC(=O)c1cnc2ccc(-c3cc(Cl)c(O)c(Cl)c3)nc2c1N[C@H]1CC[C@H](CN(C)C)CC1
  pKd: 7.82
